Reference: patent US20260256822A1, “ENTRY-MODULATING AGENTS AND USES THEREFOR” (priority 2022, published 2026)

Amino acid sequences for entries named in this document (tags omitted). Residues count along the entry.
UniProt Q8IFM8, 29-362: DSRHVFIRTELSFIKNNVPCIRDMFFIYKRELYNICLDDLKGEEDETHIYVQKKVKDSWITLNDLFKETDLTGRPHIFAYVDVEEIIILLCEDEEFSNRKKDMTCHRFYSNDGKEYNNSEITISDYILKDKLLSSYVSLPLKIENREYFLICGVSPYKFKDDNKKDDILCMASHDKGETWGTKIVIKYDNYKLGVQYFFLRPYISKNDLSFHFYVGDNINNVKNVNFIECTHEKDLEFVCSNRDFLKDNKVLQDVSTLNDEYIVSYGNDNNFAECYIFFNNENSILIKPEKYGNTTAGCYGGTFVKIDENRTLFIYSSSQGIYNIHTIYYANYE

Target: PfCyRPA (Plasmodium falciparum, UniProt Q8IFM8)

| Substance | Kd |
| --- | --- |
| Selameticin | 1200 ± 202 nM |
| Epimametcin | 3040 ± 506 nM |
